{
  "sequences": {"note": "Amino acid sequences for entries named in this document (tags omitted). A change or cut given only in a name is not applied to a line headed by its entry.", "UniProt O09028": "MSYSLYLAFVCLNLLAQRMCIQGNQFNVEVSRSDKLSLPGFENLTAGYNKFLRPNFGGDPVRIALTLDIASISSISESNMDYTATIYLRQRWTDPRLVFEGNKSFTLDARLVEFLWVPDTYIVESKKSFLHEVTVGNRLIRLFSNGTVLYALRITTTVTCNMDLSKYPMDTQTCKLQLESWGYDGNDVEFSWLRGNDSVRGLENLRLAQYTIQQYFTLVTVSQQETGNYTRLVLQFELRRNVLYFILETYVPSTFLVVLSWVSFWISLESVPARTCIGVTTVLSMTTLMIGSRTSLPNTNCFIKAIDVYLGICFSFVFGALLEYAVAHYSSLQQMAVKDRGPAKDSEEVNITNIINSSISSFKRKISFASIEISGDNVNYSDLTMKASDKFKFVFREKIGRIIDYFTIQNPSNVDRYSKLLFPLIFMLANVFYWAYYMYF", "UniProt P15431": "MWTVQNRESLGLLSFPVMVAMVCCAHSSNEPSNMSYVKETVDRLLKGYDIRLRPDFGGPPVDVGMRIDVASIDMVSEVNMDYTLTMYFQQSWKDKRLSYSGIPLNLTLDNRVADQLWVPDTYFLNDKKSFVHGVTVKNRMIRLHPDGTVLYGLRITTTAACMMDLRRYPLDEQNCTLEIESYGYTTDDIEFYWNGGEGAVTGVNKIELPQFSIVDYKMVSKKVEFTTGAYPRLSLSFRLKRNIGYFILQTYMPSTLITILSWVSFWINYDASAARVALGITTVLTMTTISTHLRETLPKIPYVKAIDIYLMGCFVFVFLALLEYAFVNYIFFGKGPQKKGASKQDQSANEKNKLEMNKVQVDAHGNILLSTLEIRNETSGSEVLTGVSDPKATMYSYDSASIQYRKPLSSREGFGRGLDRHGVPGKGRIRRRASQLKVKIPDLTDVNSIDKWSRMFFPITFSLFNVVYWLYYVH", "UniProt P18506": "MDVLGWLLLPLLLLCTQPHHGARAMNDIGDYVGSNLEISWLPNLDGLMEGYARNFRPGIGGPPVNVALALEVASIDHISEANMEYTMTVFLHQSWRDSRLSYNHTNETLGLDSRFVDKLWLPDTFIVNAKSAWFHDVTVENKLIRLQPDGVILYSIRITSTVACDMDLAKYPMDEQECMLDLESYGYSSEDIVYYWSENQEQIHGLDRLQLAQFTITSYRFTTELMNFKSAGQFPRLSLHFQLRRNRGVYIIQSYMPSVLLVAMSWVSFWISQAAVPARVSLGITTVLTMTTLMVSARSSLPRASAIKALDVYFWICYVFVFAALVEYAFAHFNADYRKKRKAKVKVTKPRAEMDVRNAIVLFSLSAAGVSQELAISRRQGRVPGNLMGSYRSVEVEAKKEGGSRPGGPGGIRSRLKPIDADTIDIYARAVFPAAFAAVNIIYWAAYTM", "UniProt P18508": "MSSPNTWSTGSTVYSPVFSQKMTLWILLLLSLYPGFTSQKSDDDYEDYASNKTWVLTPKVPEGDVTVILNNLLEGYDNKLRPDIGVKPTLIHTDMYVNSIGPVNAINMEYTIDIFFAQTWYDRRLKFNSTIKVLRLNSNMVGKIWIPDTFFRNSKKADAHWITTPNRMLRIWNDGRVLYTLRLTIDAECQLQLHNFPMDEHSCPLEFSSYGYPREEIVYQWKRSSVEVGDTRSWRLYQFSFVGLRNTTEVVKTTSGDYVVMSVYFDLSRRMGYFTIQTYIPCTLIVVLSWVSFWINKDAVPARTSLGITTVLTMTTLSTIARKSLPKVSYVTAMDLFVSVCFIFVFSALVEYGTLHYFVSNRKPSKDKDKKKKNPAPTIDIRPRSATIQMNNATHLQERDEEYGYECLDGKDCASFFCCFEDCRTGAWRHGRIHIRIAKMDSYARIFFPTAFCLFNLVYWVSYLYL", "UniProt P19969": "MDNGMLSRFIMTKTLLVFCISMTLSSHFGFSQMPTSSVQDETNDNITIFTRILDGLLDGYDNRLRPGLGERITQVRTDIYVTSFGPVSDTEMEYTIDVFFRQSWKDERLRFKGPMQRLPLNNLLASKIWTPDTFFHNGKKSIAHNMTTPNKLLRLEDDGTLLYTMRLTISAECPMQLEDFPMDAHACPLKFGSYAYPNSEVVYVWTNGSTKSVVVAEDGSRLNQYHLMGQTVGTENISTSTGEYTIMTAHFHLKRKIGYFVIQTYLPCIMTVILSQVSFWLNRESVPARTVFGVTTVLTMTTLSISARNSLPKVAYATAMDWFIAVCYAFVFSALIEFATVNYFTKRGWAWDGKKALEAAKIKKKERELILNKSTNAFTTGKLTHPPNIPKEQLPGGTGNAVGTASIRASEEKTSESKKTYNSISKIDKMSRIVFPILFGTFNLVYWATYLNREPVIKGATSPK", "UniProt P20236": "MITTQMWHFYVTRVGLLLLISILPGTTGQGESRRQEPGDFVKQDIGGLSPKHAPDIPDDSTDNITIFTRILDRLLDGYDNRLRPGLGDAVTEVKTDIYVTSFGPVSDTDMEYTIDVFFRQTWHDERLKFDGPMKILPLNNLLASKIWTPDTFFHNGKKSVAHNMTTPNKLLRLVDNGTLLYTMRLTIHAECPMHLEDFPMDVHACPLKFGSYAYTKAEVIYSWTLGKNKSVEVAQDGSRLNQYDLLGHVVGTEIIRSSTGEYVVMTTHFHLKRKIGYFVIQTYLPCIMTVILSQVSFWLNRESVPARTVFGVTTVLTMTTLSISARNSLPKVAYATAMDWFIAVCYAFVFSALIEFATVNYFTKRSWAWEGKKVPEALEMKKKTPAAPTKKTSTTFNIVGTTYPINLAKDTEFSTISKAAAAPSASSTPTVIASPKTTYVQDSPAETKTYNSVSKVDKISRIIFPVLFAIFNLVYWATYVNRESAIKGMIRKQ", "UniProt P23574": "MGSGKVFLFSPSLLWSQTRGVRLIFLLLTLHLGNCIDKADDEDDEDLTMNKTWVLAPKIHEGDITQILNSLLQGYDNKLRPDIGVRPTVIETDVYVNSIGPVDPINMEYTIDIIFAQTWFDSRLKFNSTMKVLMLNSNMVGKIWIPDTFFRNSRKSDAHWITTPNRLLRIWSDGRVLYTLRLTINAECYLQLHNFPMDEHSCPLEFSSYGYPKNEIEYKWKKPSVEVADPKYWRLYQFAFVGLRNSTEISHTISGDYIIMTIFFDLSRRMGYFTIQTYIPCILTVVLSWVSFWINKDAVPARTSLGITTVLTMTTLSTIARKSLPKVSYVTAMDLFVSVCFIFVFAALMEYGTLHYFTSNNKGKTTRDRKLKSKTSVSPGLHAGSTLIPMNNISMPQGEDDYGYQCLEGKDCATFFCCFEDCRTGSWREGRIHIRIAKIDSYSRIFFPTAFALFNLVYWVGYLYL", "UniProt P23576": "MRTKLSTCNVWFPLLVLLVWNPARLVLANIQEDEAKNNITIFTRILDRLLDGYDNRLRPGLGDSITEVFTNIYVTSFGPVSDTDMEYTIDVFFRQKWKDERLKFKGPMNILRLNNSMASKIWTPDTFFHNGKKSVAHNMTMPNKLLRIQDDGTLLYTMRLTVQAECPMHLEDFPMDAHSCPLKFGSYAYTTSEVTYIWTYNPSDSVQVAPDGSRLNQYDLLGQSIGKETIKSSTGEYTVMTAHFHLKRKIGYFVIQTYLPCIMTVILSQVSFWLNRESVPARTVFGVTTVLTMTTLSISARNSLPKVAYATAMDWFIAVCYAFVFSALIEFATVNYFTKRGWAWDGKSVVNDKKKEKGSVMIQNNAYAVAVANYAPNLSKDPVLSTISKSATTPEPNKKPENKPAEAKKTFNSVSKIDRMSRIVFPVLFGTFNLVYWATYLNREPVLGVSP", "UniProt P28473": "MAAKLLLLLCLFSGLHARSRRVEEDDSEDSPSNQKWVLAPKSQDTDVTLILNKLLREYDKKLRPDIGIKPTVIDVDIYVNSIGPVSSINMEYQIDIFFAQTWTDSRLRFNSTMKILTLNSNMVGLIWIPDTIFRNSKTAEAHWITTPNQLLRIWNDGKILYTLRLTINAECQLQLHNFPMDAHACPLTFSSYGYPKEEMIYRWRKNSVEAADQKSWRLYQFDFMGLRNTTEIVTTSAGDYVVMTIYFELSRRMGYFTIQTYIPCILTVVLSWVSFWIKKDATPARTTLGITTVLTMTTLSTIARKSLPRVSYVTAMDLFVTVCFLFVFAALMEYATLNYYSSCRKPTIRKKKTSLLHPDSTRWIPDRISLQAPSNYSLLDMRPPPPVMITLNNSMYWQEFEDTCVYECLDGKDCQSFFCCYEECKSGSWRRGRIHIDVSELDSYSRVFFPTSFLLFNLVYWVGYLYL", "UniProt P30191": "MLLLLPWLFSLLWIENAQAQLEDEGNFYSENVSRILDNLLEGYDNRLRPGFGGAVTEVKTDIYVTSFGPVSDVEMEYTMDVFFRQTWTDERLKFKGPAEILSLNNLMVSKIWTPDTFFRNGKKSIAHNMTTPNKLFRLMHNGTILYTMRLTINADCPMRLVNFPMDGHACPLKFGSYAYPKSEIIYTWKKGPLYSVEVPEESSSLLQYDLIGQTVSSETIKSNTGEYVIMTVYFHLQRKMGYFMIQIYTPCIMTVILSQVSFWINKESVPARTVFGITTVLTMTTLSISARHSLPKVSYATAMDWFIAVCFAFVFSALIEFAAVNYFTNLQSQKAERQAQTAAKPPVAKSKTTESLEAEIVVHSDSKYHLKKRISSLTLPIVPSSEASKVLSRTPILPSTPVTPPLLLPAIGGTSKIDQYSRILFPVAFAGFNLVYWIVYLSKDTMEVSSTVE", "UniProt P62813": "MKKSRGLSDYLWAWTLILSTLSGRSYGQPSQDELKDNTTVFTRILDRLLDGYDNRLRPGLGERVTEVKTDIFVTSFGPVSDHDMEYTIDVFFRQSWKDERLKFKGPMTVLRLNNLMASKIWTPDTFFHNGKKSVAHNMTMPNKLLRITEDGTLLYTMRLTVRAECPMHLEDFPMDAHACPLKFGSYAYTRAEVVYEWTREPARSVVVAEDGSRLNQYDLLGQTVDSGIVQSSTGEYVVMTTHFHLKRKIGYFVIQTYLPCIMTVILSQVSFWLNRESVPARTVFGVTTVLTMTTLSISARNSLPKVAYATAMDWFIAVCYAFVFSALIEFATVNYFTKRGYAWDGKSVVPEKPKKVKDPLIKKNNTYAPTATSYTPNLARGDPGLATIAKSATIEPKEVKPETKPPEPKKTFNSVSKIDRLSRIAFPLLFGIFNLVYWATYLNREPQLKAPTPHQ", "UniProt P63079": "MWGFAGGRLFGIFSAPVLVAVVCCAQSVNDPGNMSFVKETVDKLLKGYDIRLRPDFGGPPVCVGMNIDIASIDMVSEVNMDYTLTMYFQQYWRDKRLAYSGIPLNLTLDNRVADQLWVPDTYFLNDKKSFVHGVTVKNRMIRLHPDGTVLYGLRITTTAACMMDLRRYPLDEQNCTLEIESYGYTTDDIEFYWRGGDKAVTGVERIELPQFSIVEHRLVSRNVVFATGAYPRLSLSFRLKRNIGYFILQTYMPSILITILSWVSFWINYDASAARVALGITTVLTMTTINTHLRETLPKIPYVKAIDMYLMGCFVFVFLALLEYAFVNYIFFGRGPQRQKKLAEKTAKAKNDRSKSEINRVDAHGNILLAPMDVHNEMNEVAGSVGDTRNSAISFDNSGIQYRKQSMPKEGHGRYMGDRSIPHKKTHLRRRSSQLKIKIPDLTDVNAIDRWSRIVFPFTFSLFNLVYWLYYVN", "UniProt P63138": "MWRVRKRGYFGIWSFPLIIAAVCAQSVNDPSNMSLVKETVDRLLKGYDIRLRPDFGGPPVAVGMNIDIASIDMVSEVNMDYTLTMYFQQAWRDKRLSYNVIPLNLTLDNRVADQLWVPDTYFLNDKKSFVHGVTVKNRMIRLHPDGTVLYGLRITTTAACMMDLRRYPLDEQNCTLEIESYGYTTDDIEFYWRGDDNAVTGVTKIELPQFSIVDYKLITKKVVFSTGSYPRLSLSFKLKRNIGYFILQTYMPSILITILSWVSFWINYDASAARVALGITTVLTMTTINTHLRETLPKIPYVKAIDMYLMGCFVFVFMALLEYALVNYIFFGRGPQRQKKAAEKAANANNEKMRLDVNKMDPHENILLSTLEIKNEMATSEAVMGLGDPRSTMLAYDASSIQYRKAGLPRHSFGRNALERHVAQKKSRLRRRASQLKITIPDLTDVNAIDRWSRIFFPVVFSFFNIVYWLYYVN", "UniProt Q9ES14": "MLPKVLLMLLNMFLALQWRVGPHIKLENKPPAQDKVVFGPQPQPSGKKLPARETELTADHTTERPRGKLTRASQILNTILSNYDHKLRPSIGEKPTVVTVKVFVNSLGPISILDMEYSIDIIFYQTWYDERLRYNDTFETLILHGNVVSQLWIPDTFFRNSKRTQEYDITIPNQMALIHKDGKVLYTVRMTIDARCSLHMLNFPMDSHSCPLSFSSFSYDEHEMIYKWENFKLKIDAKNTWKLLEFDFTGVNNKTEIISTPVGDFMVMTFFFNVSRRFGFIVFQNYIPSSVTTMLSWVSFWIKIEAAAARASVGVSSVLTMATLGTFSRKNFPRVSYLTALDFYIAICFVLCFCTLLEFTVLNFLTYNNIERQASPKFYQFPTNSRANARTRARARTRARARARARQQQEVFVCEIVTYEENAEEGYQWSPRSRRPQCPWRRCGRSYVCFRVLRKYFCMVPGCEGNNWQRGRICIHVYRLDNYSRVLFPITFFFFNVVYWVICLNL"},
  "source": "ChEMBL document CHEMBL1129651",
  "about": "“3-Phenyl-substituted imidazo[1,5-alpha]quinoxalin-4-ones and imidazo[1,5-alpha]quinoxaline ureas that have high affinity at the GABAA/benzodiazepine receptor complex” (J Med Chem, 1996)",
  "target": "GABA-A receptor; anion channel (Rattus norvegicus) (UniProt O09028+P15431+P18506+P18508+P19969+P20236+P23574+P23576+P28471+P28473+P30191+P62813+P63079+P63138+Q91ZM7+Q9ES14)",
  "data": [
    {"smiles": "CC(C)n1c(=O)c2c(-c3noc(C4CC4)n3)ncn2c2ccccc21", "note": "[PANADIPLON]", "values": [
      {"measurement": "TBPS shift", "value": 0.06}
    ]}
  ]
}
